From patent publication US20140227208A1, “COSMETIC COMPOSITIONS CONTAINING SUBSTITUTED AZOLE AND METHODS FOR ALLEVIATING MECHANICALLY-INDUCED SKIN INFLAMMATION” (The Procter & Gamble Company, priority 2013, published 2014)

By UniProt entry, the sequences of proteins in these tests, tags left out.
UniProt P08684, whole entry: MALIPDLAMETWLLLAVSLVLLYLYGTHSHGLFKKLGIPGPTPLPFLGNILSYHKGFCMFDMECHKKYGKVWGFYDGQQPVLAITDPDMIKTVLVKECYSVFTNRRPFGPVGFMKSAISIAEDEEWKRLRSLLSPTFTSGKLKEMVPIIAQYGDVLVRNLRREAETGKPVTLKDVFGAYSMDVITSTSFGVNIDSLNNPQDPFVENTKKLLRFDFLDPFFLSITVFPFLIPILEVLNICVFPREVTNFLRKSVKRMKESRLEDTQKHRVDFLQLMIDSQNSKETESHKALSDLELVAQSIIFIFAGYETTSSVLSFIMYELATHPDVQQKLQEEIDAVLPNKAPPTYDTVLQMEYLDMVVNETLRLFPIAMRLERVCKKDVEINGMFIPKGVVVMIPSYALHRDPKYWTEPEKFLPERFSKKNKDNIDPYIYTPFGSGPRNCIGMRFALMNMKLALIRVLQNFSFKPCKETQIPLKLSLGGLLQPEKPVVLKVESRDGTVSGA

What was measured:
[1] = tested on: ATRA 4-hydroxylase activity (CYP) of pig liver microsomes; test: In vitro ATRA 4-hydroxylase (CYP) inhibition assay using pig liver microsomes; conditions: read-out: IC50 (μM), in vitro 4-hydroxylase inhibition assay, 1 μM ATRA, 5 mM NADPH, 37° C., 90 min
CYP3A4 = CYP3A4 (Homo sapiens, UniProt P08684); conditions: recombinant enzyme

Compound	IC50 [1]	Hit / no hit for inhibition of CYP3A4 (CYP3A4)	IC50 (CYP3A4)
CC(C)(C)C(=O)C(Oc1ccc(Cl)cc1)n1ccnc1 (stereo not drawn) [Climbazole]	47.5 µM		
Diltiazem		no hit >10 uM (key: hit: strong inhibition (IC50 value<10 μM); no hit: weak/no inhibition (IC50 value>10 μM))	> 10 µM
